Data as given in US20120090043A1, “TARGETS FOR RETROVIRUS ASSOCIATED DISEASES” (priority 2009, published 2012).

Tested on: HTLV-1 LTR promoter transactivation by HTLV-1 Tax
Test: Transactivation assay, HTLV-1 LTR luciferase reporter with HTLV-1 Tax
Assay type: cell-based
Details: HEK293 cells co-transfected with pHTLV1LTR-Luc, HTLV-1 Tax and the human ORF; relative luciferase activity 24 h post-transfection; positive if >=2 or <=0.5 and p<0.05
Description: The plasmids pHIV1LTR-Luc or pHTLV1LTR-Luc containing a luciferase reporter gene under the control of the HIV-1 or HTLV-1 LTR promoters and plasmids expressing either HIV-1 Tat or HTLV-1 Tax and each human ORF found to interact with viral proteins were transfected into 10^4 HEK293 cells using the calcium phosphate method. Twenty-four hours post-transfection, cells were washed three times with PBS, lysed and luciferase activities determined from two independent transfection experiments in triplicate. We computed a paired t-test to assess the difference of the means between samples with and without the human interactor. For a trial to be considered positive, the relative luciferase activities has to be >=2 or <=0.5, and the p-value of the t-test<0.05.
Many HIV/HTLV-human interactions in our data set (130/212) involved the retroviral transactivator proteins HTLV-1 Tax (57/212), HTLV-2 Tax2 (49/212), HIV-1 Tat (10/212) and HIV-2 Tat (14/212). Human proteins interacting with viral transactivators likely influence Tat or Tax transactivation. […] Co-transfection of interacting human ORFs identified 71 proteins (54% of the 131 human targets in our data set) that regulated HIV (26.7% of targets), HTLV (37.4% of targets) or both (9.9% of targets) LTR promoter activation by Tat or Tax (see Tables 7 and 8; Table 13 below containing quantitative data on the regulation of transactivation). […]

FTH1: human host interactor protein, Gene ID 2495, expressed from transfected ORF vector
HTLV_LTR transactiv.: 0.17 fold change
